Data taken from ChEMBL document CHEMBL6103605, “Discovery of First-in-Class BAZ2A/B and BAZ2B-Selective Degraders” (ACS Med Chem Lett, 2025).

Protein sequences, listed by entry. Tags and fused reporters are not part of them. Lines headed by an entry give the natural chain unless they say otherwise; changes in a name come on top.
UniProt Q9UIF9: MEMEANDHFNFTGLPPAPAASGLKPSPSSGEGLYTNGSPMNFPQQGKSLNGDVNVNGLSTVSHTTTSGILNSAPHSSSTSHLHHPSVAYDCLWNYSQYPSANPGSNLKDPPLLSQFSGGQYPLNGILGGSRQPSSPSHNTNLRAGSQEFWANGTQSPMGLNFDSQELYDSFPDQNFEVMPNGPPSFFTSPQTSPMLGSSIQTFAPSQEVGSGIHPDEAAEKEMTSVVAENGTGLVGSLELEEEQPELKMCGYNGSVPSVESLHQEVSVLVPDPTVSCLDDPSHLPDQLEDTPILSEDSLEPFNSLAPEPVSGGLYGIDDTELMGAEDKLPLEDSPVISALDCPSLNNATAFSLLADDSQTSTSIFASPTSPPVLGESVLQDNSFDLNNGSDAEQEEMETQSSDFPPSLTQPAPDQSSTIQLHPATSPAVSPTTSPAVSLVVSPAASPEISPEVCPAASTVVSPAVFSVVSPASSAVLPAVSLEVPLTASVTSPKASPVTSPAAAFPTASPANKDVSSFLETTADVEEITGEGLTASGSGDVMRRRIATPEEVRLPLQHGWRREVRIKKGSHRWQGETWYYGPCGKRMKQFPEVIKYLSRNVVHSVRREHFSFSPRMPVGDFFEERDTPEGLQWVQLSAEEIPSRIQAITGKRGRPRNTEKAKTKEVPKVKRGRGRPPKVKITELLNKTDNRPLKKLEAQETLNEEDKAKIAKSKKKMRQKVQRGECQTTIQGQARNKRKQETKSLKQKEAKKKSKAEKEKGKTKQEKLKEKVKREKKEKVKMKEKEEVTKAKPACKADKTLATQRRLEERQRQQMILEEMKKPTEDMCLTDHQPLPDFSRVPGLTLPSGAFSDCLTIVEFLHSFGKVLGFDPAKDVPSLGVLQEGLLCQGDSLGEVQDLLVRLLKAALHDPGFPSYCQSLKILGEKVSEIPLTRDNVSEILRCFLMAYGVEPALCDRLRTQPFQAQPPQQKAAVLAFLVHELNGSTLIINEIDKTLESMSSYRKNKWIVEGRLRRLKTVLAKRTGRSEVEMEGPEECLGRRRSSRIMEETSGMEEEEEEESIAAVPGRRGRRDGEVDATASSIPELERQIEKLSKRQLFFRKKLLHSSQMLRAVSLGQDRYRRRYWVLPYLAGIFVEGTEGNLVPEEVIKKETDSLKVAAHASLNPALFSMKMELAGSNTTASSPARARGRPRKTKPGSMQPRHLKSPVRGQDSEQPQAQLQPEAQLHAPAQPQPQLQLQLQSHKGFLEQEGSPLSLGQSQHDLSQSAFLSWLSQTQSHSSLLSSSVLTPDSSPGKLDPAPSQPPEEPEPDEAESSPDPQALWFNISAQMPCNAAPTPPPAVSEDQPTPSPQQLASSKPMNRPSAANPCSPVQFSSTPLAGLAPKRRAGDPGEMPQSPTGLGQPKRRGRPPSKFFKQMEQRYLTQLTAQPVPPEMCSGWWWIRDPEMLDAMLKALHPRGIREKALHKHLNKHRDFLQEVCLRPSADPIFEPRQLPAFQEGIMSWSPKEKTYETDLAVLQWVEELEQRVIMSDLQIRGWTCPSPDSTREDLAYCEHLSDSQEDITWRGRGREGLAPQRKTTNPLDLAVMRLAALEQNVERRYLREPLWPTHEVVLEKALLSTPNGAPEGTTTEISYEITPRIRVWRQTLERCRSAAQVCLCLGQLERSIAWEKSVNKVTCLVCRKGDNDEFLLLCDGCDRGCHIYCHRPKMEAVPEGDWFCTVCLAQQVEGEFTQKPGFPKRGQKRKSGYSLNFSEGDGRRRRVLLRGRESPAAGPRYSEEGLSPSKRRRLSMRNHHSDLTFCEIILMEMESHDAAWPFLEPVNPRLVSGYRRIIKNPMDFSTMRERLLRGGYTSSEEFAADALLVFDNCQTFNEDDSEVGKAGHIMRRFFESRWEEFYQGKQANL
UniProt P40337, whole entry, looked up: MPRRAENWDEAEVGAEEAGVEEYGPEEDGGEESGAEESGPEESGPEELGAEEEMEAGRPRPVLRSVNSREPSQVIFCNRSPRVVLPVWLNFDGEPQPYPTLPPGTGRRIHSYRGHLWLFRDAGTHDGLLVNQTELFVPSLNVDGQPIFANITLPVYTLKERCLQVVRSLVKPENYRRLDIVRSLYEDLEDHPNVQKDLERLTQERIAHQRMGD
UniProt Q9UIF8: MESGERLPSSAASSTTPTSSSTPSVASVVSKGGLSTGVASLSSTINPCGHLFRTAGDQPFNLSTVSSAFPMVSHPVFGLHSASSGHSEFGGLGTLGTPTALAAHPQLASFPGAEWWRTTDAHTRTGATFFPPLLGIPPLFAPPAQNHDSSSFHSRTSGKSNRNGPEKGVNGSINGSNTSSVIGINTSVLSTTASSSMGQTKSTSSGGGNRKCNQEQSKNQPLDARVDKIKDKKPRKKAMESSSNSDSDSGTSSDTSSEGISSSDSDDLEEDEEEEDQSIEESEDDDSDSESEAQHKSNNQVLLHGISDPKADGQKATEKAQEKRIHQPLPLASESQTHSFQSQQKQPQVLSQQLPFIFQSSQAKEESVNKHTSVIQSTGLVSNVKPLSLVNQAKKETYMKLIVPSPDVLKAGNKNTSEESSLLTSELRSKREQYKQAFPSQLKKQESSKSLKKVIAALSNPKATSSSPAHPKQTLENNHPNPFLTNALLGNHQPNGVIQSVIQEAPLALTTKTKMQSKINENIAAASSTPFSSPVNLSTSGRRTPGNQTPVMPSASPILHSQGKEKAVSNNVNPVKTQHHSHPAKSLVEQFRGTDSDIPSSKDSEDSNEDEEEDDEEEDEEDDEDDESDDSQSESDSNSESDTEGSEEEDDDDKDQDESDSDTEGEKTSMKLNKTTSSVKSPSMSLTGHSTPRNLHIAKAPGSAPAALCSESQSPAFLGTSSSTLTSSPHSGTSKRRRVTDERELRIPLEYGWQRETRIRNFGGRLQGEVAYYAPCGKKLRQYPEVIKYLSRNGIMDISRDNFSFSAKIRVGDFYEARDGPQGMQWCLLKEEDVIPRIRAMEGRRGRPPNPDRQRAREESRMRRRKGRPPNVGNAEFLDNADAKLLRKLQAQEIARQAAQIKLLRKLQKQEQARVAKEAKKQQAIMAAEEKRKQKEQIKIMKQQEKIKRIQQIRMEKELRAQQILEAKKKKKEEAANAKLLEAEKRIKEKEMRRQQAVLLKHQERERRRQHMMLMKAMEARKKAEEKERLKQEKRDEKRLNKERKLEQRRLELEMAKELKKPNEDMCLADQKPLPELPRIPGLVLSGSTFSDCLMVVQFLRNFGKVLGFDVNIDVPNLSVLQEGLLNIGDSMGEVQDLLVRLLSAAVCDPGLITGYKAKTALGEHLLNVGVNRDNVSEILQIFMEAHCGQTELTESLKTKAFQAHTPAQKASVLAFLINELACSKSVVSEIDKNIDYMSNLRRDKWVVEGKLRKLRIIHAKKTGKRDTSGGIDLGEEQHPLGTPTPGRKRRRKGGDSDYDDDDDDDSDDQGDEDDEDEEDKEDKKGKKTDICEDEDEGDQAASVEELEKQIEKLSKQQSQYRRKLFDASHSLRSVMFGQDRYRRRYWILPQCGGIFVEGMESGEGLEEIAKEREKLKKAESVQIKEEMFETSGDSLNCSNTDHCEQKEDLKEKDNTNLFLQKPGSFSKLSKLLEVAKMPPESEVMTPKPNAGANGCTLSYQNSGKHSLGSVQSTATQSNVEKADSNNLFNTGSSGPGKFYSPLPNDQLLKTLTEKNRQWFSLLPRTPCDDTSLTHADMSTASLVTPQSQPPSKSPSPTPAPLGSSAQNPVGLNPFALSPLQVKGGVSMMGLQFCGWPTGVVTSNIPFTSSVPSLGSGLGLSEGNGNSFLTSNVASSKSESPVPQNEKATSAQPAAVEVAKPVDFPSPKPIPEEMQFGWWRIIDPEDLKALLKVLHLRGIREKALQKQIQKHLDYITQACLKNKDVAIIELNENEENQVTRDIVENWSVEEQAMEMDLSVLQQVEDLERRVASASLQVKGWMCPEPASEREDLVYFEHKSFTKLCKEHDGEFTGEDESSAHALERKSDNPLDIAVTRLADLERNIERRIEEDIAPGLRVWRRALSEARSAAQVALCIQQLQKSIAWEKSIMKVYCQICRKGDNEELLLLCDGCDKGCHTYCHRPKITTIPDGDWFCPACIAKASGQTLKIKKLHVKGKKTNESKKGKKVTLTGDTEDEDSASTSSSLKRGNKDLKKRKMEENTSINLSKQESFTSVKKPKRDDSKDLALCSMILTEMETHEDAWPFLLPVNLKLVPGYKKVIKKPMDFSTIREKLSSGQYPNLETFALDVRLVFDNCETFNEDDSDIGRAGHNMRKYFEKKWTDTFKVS

How the values were obtained:
[1] = molecular target: T1, von Hippel-Lindau disease tumor suppressor/Bromodomain adjacent to zinc finger domain protein 2A (Homo sapiens, UniProt Q9UIF9+P40337); assay: PROTAC activity at BAZ2A/VHL in human PC-3 cells assessed as remaining protein at 1 uM after 4 hrs by Western blot analysis relative to control; format: cell-based
[2] = molecular target: T2, von Hippel-Lindau disease tumor suppressor/Bromodomain adjacent to zinc finger domain protein 2B (Homo sapiens, UniProt Q9UIF8+P40337); assay: PROTAC activity at BAZ2B/VHL in human PC-3 cells assessed as remaining protein at 1 uM after 4 hrs by Western blot analysis relative to control; format: cell-based
[3] = molecular target: T2, von Hippel-Lindau disease tumor suppressor/Bromodomain adjacent to zinc finger domain protein 2B; assay: PROTAC activity at BAZ2B/VHL in human PC-3 cells assessed as protein depletion at 1 uM after 4 hrs by Western blot analysis relative to control; format: cell-based
[4] = molecular target: T1, von Hippel-Lindau disease tumor suppressor/Bromodomain adjacent to zinc finger domain protein 2A; assay: PROTAC activity at BAZ2A/VHL in human PC-3 cells assessed as BAZ2A degradation at 1 uM after 4 hrs by Western blot analysis; format: cell-based
[5] = molecular target: T1, von Hippel-Lindau disease tumor suppressor/Bromodomain adjacent to zinc finger domain protein 2A; assay: PROTAC activity at BAZ2A/VHL in human PC-3 cells assessed as BAZ2A degradation at 0.25 uM after 4 hrs by Western blot analysis; format: cell-based
[6] = molecular target: T2, von Hippel-Lindau disease tumor suppressor/Bromodomain adjacent to zinc finger domain protein 2B; assay: PROTAC activity at BAZ2B/VHL in human PC-3 cells assessed as degradation at 0.25 uM after 4 hrs by Western blot analysis; format: cell-based
[7] = molecular target: T1, von Hippel-Lindau disease tumor suppressor/Bromodomain adjacent to zinc finger domain protein 2A; assay: PROTAC activity at BAZ2A/VHL in human PC-3 cells assessed as degradation at 0.25 uM after 4 hrs in the presence of BAZ2-ICR by Western blot analysis; format: cell-based
[8] = molecular target: T1, von Hippel-Lindau disease tumor suppressor/Bromodomain adjacent to zinc finger domain protein 2A; assay: PROTAC activity at BAZ2A/VHL in human PC-3 cells assessed as degradation at 0.25 uM after 4 hrs in the presence of VH032 by Western blot analysis; format: cell-based
[9] = molecular target: T1, von Hippel-Lindau disease tumor suppressor/Bromodomain adjacent to zinc finger domain protein 2A; assay: PROTAC activity at BAZ2A/VHL in human PC-3 cells assessed as degradation at 0.25 uM after 4 hrs in the presence of MG132 by Western blot analysis; format: cell-based
[10] = molecular target: T2, von Hippel-Lindau disease tumor suppressor/Bromodomain adjacent to zinc finger domain protein 2B; assay: PROTAC activity at BAZ2B/VHL in human PC-3 cells assessed as maximum degradation after 4 hrs by Western blot analysis relative to control; format: cell-based
[11] = molecular target: T1, von Hippel-Lindau disease tumor suppressor/Bromodomain adjacent to zinc finger domain protein 2A; assay: PROTAC activity at BAZ2A/VHL in human PC-3 cells assessed as degradation at 1 uM after 2 to 72 hrs by western blot analysis; format: cell-based; conditions: time 2-72 hrs
[12] = molecular target: T2, von Hippel-Lindau disease tumor suppressor/Bromodomain adjacent to zinc finger domain protein 2B; assay: PROTAC activity at BAZ2B/VHL in human PC-3 cells assessed as degradation at 1 uM after 2 to 72 hrs by western blot analysis; format: cell-based; conditions: time 2-72 hrs
[13] = molecular target: T2, von Hippel-Lindau disease tumor suppressor/Bromodomain adjacent to zinc finger domain protein 2B; assay: PROTAC activity at BAZ2B/VHL in human MM1.S cells assessed as BAZ2B degradation at 0.25 uM after 4 hrs by western blot analysis; format: cell-based
[14] = molecular target: T1, von Hippel-Lindau disease tumor suppressor/Bromodomain adjacent to zinc finger domain protein 2A; assay: PROTAC activity at BAZ2A/VHL in human PC-3 cells assessed as induction of BAZ2A degradation at 0.25 uM after 4 hrs by Western blot analysis; format: cell-based
PC-3 = assay: Effect on BAZ2A mRNA level in human PC-3 cells at 0.25 uM measured after 4 hrs by RT-qPCR analysis; format: functional, cell-based
MM1.S = assay: Effect on BAZ2A mRNA level in human MM1.S cells at 0.25 uM measured after 4 hrs by RT-qPCR analysis; format: functional, cell-based
[15] = molecular target: T1, von Hippel-Lindau disease tumor suppressor/Bromodomain adjacent to zinc finger domain protein 2A; assay: PROTAC activity at BAZ2A/VHL in human PC-3 cells assessed as hook effect at 10 uM after 4 hrs by Western blot analysis; format: cell-based
[16] = molecular target: T2, von Hippel-Lindau disease tumor suppressor/Bromodomain adjacent to zinc finger domain protein 2B; assay: PROTAC activity at BAZ2B/VHL in human PC-3 cells assessed as hook effect at 10 uM after 4 hrs by Western blot analysis; format: cell-based
[17] = molecular target: T1, von Hippel-Lindau disease tumor suppressor/Bromodomain adjacent to zinc finger domain protein 2A; assay: PROTAC activity at BAZ2A/VHL in human PC-3 cells assessed as maximal degradation at 1 uM after 48 hrs by western blot analysis; format: cell-based
[18] = molecular target: T1, von Hippel-Lindau disease tumor suppressor/Bromodomain adjacent to zinc finger domain protein 2A; assay: PROTAC activity at BAZ2A/VHL in human PC-3 cells assessed as degradation at 1 uM after 4 hrs by Western blot analysis; format: cell-based
[19] = molecular target: T2, von Hippel-Lindau disease tumor suppressor/Bromodomain adjacent to zinc finger domain protein 2B; assay: PROTAC activity at BAZ2B/VHL in human PC-3 cells assessed as degradation at 1 uM after 4 hrs by Western blot analysis; format: cell-based
[20] = molecular target: T1, von Hippel-Lindau disease tumor suppressor/Bromodomain adjacent to zinc finger domain protein 2A; assay: PROTAC activity at BAZ2A/VHL in human PC-3 cells assessed as protein depletion at 1 uM after 4 hrs by Western blot analysis relative to control; format: cell-based
[21] = molecular target: T1, von Hippel-Lindau disease tumor suppressor/Bromodomain adjacent to zinc finger domain protein 2A; assay: PROTAC activity at BAZ2A/VHL in human PC-3 cells assessed as degradation at 1 uM after 4 hrs in the presence of BAZ2-ICR by Western blot analysis; format: cell-based
[22] = molecular target: T1, von Hippel-Lindau disease tumor suppressor/Bromodomain adjacent to zinc finger domain protein 2A; assay: PROTAC activity at BAZ2A/VHL in human PC-3 cells assessed as degradation at 1 uM after 4 hrs in the presence of VH032 by Western blot analysis; format: cell-based
[23] = molecular target: T1, von Hippel-Lindau disease tumor suppressor/Bromodomain adjacent to zinc finger domain protein 2A; assay: PROTAC activity at BAZ2A/VHL in human PC-3 cells assessed as degradation at 1 uM after 4 hrs in the presence of MG132 by Western blot analysis; format: cell-based
[24] = molecular target: T1, von Hippel-Lindau disease tumor suppressor/Bromodomain adjacent to zinc finger domain protein 2A; assay: PROTAC activity at BAZ2A/VHL in human PC-3 cells assessed as maximum degradation after 4 hrs by Western blot analysis relative to control; format: cell-based
[25] = molecular target: T1, von Hippel-Lindau disease tumor suppressor/Bromodomain adjacent to zinc finger domain protein 2A; assay: PROTAC activity at BAZ2A/VHL in human MM1.S cells assessed as BAZ2A degradation at 1 uM after 4 hrs by western blot analysis; format: cell-based
[26] = molecular target: T2, von Hippel-Lindau disease tumor suppressor/Bromodomain adjacent to zinc finger domain protein 2B; assay: PROTAC activity at BAZ2B/VHL in human MM1.S cells assessed as BAZ2B degradation at 1 uM after 4 hrs by western blot analysis; format: cell-based

Activity [1]	Activity [2]	Activity [3]	Activity [5]	Activity [6]	Emax [10]	Activity [11]	Activity [12]	Activity [15]	Activity [16]	Activity [18]	Activity [19]	SMILES	other results
190%	10.5%	< 90%	inactive	> 92%	> 95%	> 84%	> 84%	Active	Active	–	–	Cc1ncsc1-c1ccc(CNC(=O)[C@@H]2C[C@@H](O)CN2C(=O)[C@@H](NC(=O)C2(F)CC2)C(C)(C)C)c(OC[C@H]2CC[C@H](COCc3nc(-c4cnn(C)c4)c(-c4ccc(C#N)cc4)n3CCc3cnn(C)c3)CC2)c1	Activity [4]: inactive; Activity [7]: inactive; Activity [8]: inactive; Activity [9]: inactive; Activity [13]: Active; Activity [14]: inactive; Activity (PC-3): inactive; Activity (MM1.S): inactive; Activity [17]: Active
–	–	–	–	–	–	–	–	–	–	inactive	inactive	Cc1ncsc1-c1ccc(CNC(=O)[C@@H]2C[C@H](O)CN2C(=O)[C@@H](NC(=O)C2(F)CC2)C(C)(C)SC[C@H]2CC[C@H](COCc3nc(-c4cnn(C)c4)c(-c4ccc(C#N)cc4)n3CCc3ccn(C)n3)CC2)cc1	–
7.6%	7.8%	92%	–	–	> 99%	> 84%	> 84%	Active	Active	> 92%	> 92%	Cc1ncsc1-c1ccc(CNC(=O)[C@@H]2C[C@@H](O)CN2C(=O)[C@@H](NC(=O)C2(F)CC2)C(C)(C)SC[C@H]2CC[C@H](COCc3nc(-c4cnn(C)c4)c(-c4ccc(C#N)cc4)n3CCc3cnn(C)c3)CC2)cc1	Activity [20]: 92%; Activity [21]: inactive; Activity [22]: inactive; Activity [23]: inactive; Emax [24]: > 97%; Activity [25]: Active; Activity [26]: Active
–	–	–	inactive	inactive	–	–	–	–	–	–	–	Cc1ncsc1-c1ccc(CNC(=O)[C@@H]2C[C@H](O)CN2C(=O)[C@@H](NC(=O)C2(F)CC2)C(C)(C)C)c(OC[C@H]2CC[C@H](COCc3nc(-c4cnn(C)c4)c(-c4ccc(C#N)cc4)n3CCc3cnn(C)c3)CC2)c1	–

Active and inactive are the calls of the source. The calls are words filed in the database; no cut-off is given here.
